Experimental data published in ChEMBL document CHEMBL3817780, “Structure-Based Design of 1,4-Dibenzoylpiperazines as β-Catenin/B-Cell Lymphoma 9 Protein-Protein Interaction Inhibitors” (ACS Med Chem Lett, 2016).

How the values were obtained:
Homo sapiens [1] = organism: Homo sapiens; assay: Selectivity ratio of Ki for beta-catenin E155A mutant (138 to 686 residues)(unknown origin)/N-terminally fluorescein-labeled human BCL9 (350 to 375 residues) interaction to Ki for wild type beta-catenin (unknown origin)/N-terminally biotinylated human BCL9 (350 to 375 residues) interaction
Homo sapiens [2] = organism: Homo sapiens; assay: Selectivity ratio of Ki for beta-catenin D145A mutant (138 to 686 residues)(unknown origin)/N-terminally fluorescein-labeled human BCL9 (350 to 375 residues) interaction to Ki for wild type beta-catenin (unknown origin)/N-terminally biotinylated human BCL9 (350 to 375 residues) interaction

Ratio Ki (Homo sapiens [1]): 6
Ratio Ki (Homo sapiens [2]): 6
Structure (SMILES): Cl.Cl.O=C(c1cc(F)cc(N2CCNCC2)c1)N1CCN(C(=O)c2ccc(O[C@H]3CCNC3)c(C3CCCCC3)c2)CC1
